Measured values from patent US20030143225A1 (Genentech, published 2003).

Protein sequences, listed by entry. Tags and fused reporters are not part of them. Lines headed by an entry give the natural chain unless they say otherwise; changes in a name come on top.
UniProt P13726: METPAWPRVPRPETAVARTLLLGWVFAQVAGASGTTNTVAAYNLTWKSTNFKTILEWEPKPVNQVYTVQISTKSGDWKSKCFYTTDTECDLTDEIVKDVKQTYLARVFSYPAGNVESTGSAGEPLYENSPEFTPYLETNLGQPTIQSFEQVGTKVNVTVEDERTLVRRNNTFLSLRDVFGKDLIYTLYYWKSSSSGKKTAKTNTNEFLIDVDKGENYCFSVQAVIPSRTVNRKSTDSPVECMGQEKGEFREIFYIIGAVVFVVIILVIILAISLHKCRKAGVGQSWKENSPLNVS

Target: TF (1-234) lacking the cytoplasmic domain, relipidated (human, UniProt P13726 33-266)
Assay: cell-based or functional assay

F.X activation IC50: 0.073 nM
B1: D3H44 IgG2 (antibody, V domains shown)
VH: EVQLVESGGGLVQPGGSLRLSCAASGFNIKEYYMHWVRQAPGKGLEWVGLIDPEQGNTIYDPKFQDRATISADNSKNTAYLQMNSLRAEDTAVYYCARDTAAYFDYWGQGTLVTVSS
VL: DIQMTQSPSSLSASVGDRVTITCRASRDIKSYLNWYQQKPGKAPKVLIYYATSLAEGVPSRFSGSGSGTDYTLTISSLQPEDFATYYCLQHGESPWTFGQGTKVEIKR
